This note sets out measurements from ChEMBL document CHEMBL1134540, “ElogD(oct): a tool for lipophilicity determination in drug discovery. 2. Basic and neutral compounds” (J Med Chem, 2001).

A short description of the data set: physchem.

SMILES strings stand for the structures.

For the compound `c1ccc2ccccc2c1`, the log distribution coefficient (logD) was determined as 3.37.

One may read the logD as lipophilicity at a set pH, counting ionised and neutral species. High values mean higher lipophilicity, low ones lower lipophilicity.
